Laboratory results reported in patent US20120149631A1 (priority 2009, published 2012).

Tested on: horse erythrocytes
Experiment: Hemolysis assay
Assay type: cell-based
Conditions: 2% horse erythrocytes, 1 h

| SMILES | hemolysis (100 ug/ml peptide) [%] | hemolysis (1000 ug/ml peptide) [%] |
| --- | --- | --- |
| N=C(N)NCCC[C@H](NC(=O)[C@@H](N)CCCCN)C(=O)N[C@@H](Cc1ccccc1)C(=O)N[C@@H](CCCCN)C(=O)N[C@@H](CCCCN)C(=O)N[C@@H](Cc1ccccc1)C(=O)N[C@@H](Cc1ccccc1)C(=O)N[C@@H](CCCCN)C(=O)N[C@@H](CCCCN)C(=O)N1CCC[C@H]1C(=O)N[C@@H](CCCCN)C(N)=O [ATRA-1P] | 1.9 |  |
| CC(C)C[C@H](NC(=O)[C@H](CCCCN)NC(=O)[C@H](CCCCN)NC(=O)[C@H](Cc1ccccc1)NC(=O)[C@H](Cc1ccccc1)NC(=O)[C@H](CCCCN)NC(=O)[C@H](CCCCN)NC(=O)[C@H](C)NC(=O)[C@H](CCCNC(=N)N)NC(=O)[C@@H](N)CCCCN)C(=O)N[C@@H](CCCCN)C(N)=O [ATRA-1A] | 1.1 | 3.5 |
